The values that follow come from ChEMBL document CHEMBL5154675, “Design, Synthesis, and Biological Evaluation of 1-(Indolizin-3-yl)ethan-1-ones as CBP Bromodomain Inhibitors for the Treatment of Prostate Cancer” (J Med Chem, 2022).

The series is described as follows: Apparent permeability across basolateral to apical side in human Caco-2 cells at 10 uM measured after 2 hrs by LC-MS/MS analysis. In kind it is ADME, cell-based.

In the case of `C[C@H]1O[C@@H](O[C@H]2[C@@H](O)C[C@H](O[C@H]3[C@@H](O)C[C@H](O[C@H]4CC[C@@]5(C)[C@H](CC[C@@H]6[C@@H]5C[C@@H](O)[C@]5(C)[C@@H](C7=CC(=O)OC7)CC[C@]65O)C4)O[C@@H]3C)O[C@@H]2C)C[C@H](O)[C@@H]1O` [DIGOXIN], the basolateral-to-apical permeability (Papp B→A) at 2 h, 10 µM was determined as 13.9 ×10⁻⁶ cm/s.

The Papp B→A is the apparent permeability from the basolateral to the apical side of a cell layer.
